Key:
Format in all cases: cell-based
[1] = system: secreted β-amyloid 40 (Aβ40) peptide; assay: Secreted β-amyloid 40 (Aβ40) peptide in APP overexpressing SH-SY5Y-APP cells; settings: Homo sapiens, overnight (16-18 hours)
[2] = system: Tau phosphorylation at Ser396 (pSer396); assay: Tau phosphorylation assay (pSer396 ELISA / western blot) in SH-SY5Y cells; settings: Homo sapiens, read-out: pSer396 Tau EC50;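 also: EC50 for reduction of Tau pSer396 in lysed cells, measured by colorimetric ELISA or chemiluminescent western blot, both using the same pSer396 antibody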
[3] = system: α-smooth muscle actin (αSMA) positive LL29 cells; assay: Inhibition of fibrotic process: αSMA in TGF-β1 treated primary human fibroblasts from IPF patients; settings: Fibroblast, 96 h, Table 8, TGF-β1 20 ng/mL, 4 days, dose-response 10 μM to 0.94 nM;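 also: controls were TGF-β1 stimulated wells with DMSO vehicle (positive) and cells given DMSO alone (negative), cultured in F12 medium with 1% fetal bovine serum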

Structure (SMILES) | IC50 [1] | EC50 [2] | EC50 [3]
CC(C)CN1CCC(C(=O)Nc2cc3cc(-c4cnn(C)c4)ccc3cn2)CC1 [Compound 77, 1-Isobutyl-N-(6-(1-methyl-1H-pyrazol-4-yl)isoquinolin-3-yl)piperidine-4-carboxamide] | 1100 nM | 184 nM | 146 nM
[2H]C([2H])([2H])n1cc(-c2ccc3cnc(NC(=O)C4CCN(CC(C)C)CC4)cc3c2)cn1 [Compound 972, 1-Isobutyl-N-(6-(1-(methyl-d3)-1H-pyrazol-4-yl)isoquinolin-3-yl)piperidine-4-carboxamide] | – | 355 nM | 754 nM
[2H]C([2H])([2H])C([2H])(C([2H])([2H])[2H])C([2H])([2H])N1CCC(C(=O)Nc2cc3cc(-c4cnn(C)c4)ccc3cn2)CC1 [Compound 1086, N-(6-(1-Methyl-1H-pyrazol-4-yl)isoquinolin-3-yl)-1-(2-(methyl-d3)propyl-1,1,2,3,3,3-d6)piperidine-4-carboxamide] | – | 168 nM | –
[2H]c1nc(NC(=O)C2CCN(CC(C)C)CC2)cc2cc(-c3cnn(C)c3)ccc12 [Compound 1087, 1-Isobutyl-N-(6-(1-methyl-1H-pyrazol-4-yl)isoquinolin-3-yl-1-d)piperidine-4-carboxamide] | – | 160 nM | –
